Source: ChEMBL document CHEMBL2021912, “Synthesis, cytotoxicity and apoptosis of cyclotriphosphazene compounds as anti-cancer agents” (Eur J Med Chem, 2012)
Activity calls are given as the source filed them. The calls are words filed in the database; no cut-off is given here.

Tests used:
[1] = test system: HT-29; assay: Cytotoxicity against human HT-29 cells after 24 hrs at 37 degC by MTT assay; assay type: functional
Outline: (§1)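 Vero and HT-29 grown in DMEM/10% FBS, Hep2 in EMEM/10% FBS; seeded at 2 × 10^4 (Vero, Hep2) or 3 × 10^4 (HT-29) cells/mL; exposed 24 h to 0.2–50 µg/mL compound, final DMSO 1%; MTT 1 mg/mL 2 h at 37 °C, formazan in DMSO, OD 540 nm; % of DMSO control; ID50 by probit; triplicate wells, three repeats.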

[2] = test system: HEp-2; assay: Cytotoxicity against human Hep2 cells after 24 hrs at 37 degC by MTT assay; assay type: functional; outline: as §1

## FC1(F)COP2(Cl)=NP(Cl)(Cl)=NP(Cl)(=N2)OCC1(F)F (stereo unspecified)
[1]
  ID50: 5.59 µM
[2]
  ID50: 2.7 µM

## FC1(F)COP2(=NP(Cl)(Cl)=NP(Cl)(Cl)=N2)OCC1(F)F
[1]
  ID50: 4.31 µM
[2]
  ID50: 3.3 µM

## ClP1(Cl)=NP(Cl)(Cl)=NP(Sc2ccccc2)(Sc2ccccc2)=N1
[1]
  ID50: 3.78 µM
[2]
  ID50: 5.43 µM

## CC1(C)COP2(=NP(Cl)(Cl)=NP(Cl)(Cl)=N2)OC1
[1]
  ID50: 4.09 µM
[2]
  ID50: 2.3 µM

## ClP1(Cl)=NP(Cl)(Cl)=NP(Cl)(Cl)=N1
[2]
  ID50: inactive

## ClP1(Cl)=NP(Cl)(Cl)=NP(Nc2ccccc2)(Nc2ccccc2)=N1
[1]
  ID50: inactive
[2]
  ID50: inactive
